The values that follow come from patent US20230393120A1, “A HUMAN VASCULAR INJURY-ON-A-CHIP MODEL OF HEMOSTASIS” (THE TRUSTEES OF THE UNIVERSITY OF PENNSYLVANIA, priority 2020, published 2023).

Assay [1] has as its system platelet and fibrin accumulation at the injury site, human whole blood. The assay is described as follows: Puncture injury in TNF-α-treated devices with tissue factor-free collagen gel, hemostatic response. The assay is classed as cell-based. The note with it: 1 ng/ml overnight, no tissue factor in collagen gel. The source says: (§1) The disclosed technique was further used to test whether the location of tissue factor influences the formation of competent hemostatic plugs in our system. A condition in which tissue factor was localized on the endothelial lining of the intravascular channel was created, rather than being embedded in the collagen matrix by treating the endothelium with tumor necrosis factor (TNF)-α, which is a known inducer of endothelial tissue factor expression. […] Bleeding caused by the puncture injury in this model triggered the hemostatic response and led to the aggregation of platelets at the injury site (FIG. 3F). […] The increased thrombotic activities can be explained by the high levels of tissue factor present on the TNF-α-treated endothelial surface.
(§2) Preparation of blood vessel-on-a-chip: Assembled devices were autoclaved for sterilization prior to cell culture. To increase the strength of interfacial adhesion between collagen gel and PDMS, dopamine hydrochloride (Sigma-Aldrich) solution (2.0 mg/mL w/v in 10 mM Tris-HCl buffer, pH 8.5) was injected into the middle compartment of the device and incubated for 2 hours at room temperature. […]
Fluorescently-labeled antibodies to CD61, P-selectin, and fibrin were added to the blood prior to perfusion through the microfluidic device to visualize platelet deposition, platelet activation, and fibrin accumulation. Different biomarkers of the hemostatic response, such as platelet accumulation and fibrin formation at the injury site, were monitored using real-time fluorescence imaging using the Zeiss Axio Zoom.V16, objective PlanNeoFluor Z 1.0×, with a total 75×, using the Axiocam 506 camera. […]
Measurement of sum and mean fluorescence intensity: For each image capture, 80 pm of the intravascular and extravascular side of the injury was analyzed—40 pm below the gel boundary and 40 pm above. […] The total intensity was quantified, and for P-selectin, the mean fluorescence intensity (MFI) within the platelet mask was calculated for the total volume that was analyzed. […]

In assay [2] the test system is tissue factor expression in endothelial cells (HUVECs). Put plainly: Endothelial tissue factor expression after TNF-α treatment (immunostaining, confocal). The class given is cell-based, human. The conditions noted are these: overnight treatment with 1 ng/ml.
From the text: as §1
as §2, with “temperature. Next, 6 mg/ml of rat-tail collagen type I containing 2.5% (v/v) lipidated tissue factor (Dade Innovin Reagent, Siemens) was introduced into the polydopamine-treated chamber and polymerized at 37° C. for 30 minutes.” for “temperature.”

Regarding tumor necrosis factor (TNF)-α [TNF-α], the “formation of plugs sealing the opening of the injury” value in assay [1] is recorded as “failed to form plugs”. In addition, in assay [1] (vs control without TNF-α), the “deposition and activation of platelets” value is reported as “substantially increased”; the “fibrin production and accumulation” value is “more pronounced”. Further, the “expression of tissue factor in the endothelial cells” value in assay [2] is “robust and widespread expression”.
